Experiments:
LSD1-CoREST complex = assay: LSD1-CoREST inhibition assay (Amplex UltraRed/HRP, H3K4 peptide)
hMAO-A = molecular target: T1, hMAO-A (Homo sapiens, UniProt P21397); assay: Anti-MAO assay (Amplex Red, p-tyramine); assay type: biochemical
T1 construct: purchased Sigma-Aldrich

Sequences of proteins named here, by UniProt entry; tags and fusion partners are left off.
UniProt P21397, whole entry: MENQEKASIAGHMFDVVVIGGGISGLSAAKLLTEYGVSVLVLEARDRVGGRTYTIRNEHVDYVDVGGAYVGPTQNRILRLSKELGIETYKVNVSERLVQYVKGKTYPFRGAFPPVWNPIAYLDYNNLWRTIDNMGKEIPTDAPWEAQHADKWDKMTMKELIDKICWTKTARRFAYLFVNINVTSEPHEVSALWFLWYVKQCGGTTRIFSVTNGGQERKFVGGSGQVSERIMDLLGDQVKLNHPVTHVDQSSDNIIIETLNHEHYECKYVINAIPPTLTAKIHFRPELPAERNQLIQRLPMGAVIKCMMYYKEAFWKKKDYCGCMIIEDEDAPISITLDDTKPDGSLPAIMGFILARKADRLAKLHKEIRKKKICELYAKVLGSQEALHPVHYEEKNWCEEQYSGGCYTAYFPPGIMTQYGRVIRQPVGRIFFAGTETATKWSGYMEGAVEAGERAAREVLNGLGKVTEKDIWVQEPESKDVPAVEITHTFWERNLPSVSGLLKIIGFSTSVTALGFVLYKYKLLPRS

SMILES: Cl.NC1CC1c1ccc(NC(=O)c2cccc(-c3ccsc3)c2)cc1 (stereo not shown) [5b, N-(4-(2-Aminocyclopropyl)phenyl)-3-(thiophen-3-yl)benzamide hydrochloride]
- LSD1 selectivity vs MAO-A (LSD1-CoREST complex; IC50 MAO-A/IC50 LSD1): 5.6
- LSD1 selectivity vs MAO-B (LSD1-CoREST complex; IC50 MAO-B/IC50 LSD1): 164.0
- fold more potent against MAO-A than the corresponding para analog (hMAO-A; 5b vs 5a): 1.5 fold
- MAO Selectivity Index (hMAO-A; IC50 MAO-B/IC50 MAO-A): 29.3

From article PMC8942502 (Journal of Enzyme Inhibition and Medicinal Chemistry, 2022)
